Source: patent US20160222014A1, “COMPOUNDS FOR REGULATING FAK AND/OR SRC PATHWAYS” (ASANA BIOSCIENCES, LLC, priority 2013, published 2016)

By UniProt entry, the sequences of proteins in these tests, tags left out. Residues count along the entry.
UniProt Q96GD4, whole entry: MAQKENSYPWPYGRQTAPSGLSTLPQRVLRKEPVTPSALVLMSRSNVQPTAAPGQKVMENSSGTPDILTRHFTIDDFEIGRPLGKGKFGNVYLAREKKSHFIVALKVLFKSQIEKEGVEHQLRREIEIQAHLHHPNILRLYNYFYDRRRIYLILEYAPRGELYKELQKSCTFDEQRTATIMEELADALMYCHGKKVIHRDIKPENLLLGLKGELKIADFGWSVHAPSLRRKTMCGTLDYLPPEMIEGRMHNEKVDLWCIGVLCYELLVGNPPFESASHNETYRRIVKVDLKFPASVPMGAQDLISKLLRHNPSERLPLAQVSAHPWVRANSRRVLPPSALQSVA
UniProt Q05397, 422-680 limits assumed: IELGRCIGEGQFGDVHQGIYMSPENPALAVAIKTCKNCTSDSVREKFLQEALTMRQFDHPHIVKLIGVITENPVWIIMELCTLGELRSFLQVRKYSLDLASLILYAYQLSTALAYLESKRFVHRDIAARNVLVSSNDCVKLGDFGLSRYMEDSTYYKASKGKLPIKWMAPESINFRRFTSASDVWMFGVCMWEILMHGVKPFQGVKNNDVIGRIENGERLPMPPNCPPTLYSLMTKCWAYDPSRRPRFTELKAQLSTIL
UniProt Q05397, whole entry: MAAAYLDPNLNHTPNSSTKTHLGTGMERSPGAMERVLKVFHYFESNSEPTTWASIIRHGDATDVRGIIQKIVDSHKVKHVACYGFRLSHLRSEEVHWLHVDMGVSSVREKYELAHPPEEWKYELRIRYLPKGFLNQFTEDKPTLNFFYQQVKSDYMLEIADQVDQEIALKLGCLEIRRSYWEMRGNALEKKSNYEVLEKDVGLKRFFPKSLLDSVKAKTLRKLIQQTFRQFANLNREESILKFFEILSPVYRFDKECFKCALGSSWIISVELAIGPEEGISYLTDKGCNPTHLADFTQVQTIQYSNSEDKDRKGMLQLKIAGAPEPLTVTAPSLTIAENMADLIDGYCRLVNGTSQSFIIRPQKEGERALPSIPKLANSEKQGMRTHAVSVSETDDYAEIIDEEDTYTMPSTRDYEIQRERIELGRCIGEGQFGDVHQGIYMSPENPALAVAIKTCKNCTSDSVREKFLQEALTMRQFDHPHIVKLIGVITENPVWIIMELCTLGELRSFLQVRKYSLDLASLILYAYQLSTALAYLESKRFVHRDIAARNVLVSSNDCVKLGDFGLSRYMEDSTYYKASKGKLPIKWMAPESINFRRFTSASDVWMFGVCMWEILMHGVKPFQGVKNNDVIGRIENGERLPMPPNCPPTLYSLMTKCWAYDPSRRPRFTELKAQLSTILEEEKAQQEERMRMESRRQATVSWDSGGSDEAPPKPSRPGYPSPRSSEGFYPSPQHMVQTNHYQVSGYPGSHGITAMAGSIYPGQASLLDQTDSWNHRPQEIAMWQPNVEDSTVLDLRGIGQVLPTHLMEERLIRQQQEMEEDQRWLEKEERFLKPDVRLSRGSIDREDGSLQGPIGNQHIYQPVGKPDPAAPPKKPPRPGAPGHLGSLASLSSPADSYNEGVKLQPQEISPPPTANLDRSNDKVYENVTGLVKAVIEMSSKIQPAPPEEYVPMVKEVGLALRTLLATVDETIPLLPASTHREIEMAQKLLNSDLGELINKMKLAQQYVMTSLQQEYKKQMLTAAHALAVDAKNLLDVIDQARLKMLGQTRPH
UniProt P12931, whole entry: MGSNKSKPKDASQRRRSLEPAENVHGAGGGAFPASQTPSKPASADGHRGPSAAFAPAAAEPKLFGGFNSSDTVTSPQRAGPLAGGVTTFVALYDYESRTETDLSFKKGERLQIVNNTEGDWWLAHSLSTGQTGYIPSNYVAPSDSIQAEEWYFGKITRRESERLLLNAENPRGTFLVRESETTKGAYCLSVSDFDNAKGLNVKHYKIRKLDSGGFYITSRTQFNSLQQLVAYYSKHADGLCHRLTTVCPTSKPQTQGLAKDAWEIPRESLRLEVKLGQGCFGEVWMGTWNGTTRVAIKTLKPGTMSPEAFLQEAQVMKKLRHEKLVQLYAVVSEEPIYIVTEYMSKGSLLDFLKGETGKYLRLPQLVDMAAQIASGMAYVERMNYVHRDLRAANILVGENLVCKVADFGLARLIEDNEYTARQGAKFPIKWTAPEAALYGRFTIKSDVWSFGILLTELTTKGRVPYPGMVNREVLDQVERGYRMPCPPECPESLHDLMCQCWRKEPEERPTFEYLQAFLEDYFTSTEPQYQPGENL
UniProt O60674, whole entry: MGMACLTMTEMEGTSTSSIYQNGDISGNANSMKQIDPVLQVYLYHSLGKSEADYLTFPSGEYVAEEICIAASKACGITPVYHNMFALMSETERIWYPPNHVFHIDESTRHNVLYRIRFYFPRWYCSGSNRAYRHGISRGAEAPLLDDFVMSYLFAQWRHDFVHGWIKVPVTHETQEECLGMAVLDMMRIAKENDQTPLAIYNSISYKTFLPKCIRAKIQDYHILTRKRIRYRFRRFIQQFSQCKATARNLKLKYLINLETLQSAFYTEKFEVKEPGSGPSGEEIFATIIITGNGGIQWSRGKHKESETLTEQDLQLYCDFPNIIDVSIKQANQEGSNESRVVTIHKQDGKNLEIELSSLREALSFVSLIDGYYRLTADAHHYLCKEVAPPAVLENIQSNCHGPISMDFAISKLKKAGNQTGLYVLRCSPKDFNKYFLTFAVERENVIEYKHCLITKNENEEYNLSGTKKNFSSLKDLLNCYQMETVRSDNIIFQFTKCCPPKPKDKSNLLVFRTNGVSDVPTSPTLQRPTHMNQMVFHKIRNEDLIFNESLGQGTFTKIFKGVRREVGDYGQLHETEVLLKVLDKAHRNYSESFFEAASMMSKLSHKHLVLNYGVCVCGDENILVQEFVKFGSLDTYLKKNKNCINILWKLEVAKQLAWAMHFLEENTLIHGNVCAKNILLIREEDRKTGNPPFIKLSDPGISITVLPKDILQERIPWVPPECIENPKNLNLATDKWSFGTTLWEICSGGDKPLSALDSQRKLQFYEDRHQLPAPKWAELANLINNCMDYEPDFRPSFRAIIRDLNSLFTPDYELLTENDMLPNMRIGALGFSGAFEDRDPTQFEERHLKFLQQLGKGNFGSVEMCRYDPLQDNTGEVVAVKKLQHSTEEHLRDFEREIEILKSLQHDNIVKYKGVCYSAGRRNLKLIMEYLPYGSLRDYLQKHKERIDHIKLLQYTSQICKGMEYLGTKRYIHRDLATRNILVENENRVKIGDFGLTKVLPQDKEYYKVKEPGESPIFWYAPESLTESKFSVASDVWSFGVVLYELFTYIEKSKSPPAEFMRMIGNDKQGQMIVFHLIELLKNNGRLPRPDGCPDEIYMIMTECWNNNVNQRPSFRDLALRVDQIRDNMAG

Key:
[1] = target: AURKB (Aurora B) enzyme (Homo sapiens, UniProt Q96GD4); experiment: Aurora B HTRF assay; conditions: read-out: AuroraB IC50
[2] = target: FAK phosphorylated at Y397 in HEK-FAK cell line overexpressing human FL FAK protein (Homo sapiens, UniProt Q05397); experiment: Cell based assay, Phospho-FAK ELISA; conditions: read-out: pFAK EC50 (μM) HEK stb
[3] = target: recombinant human FAK1 (Homo sapiens, UniProt Q05397); experiment: FAK1 HTRF assay; conditions: read-out: FAK1 HTRF IC50
[4] = target: Phospho Src(Y416) (Homo sapiens, UniProt P12931); experiment: Phospho Src(Y416) Sandwich ELISA; conditions: read-out: pSrc EC50 (μM) Panc1
[5] = target: JAK2 (Homo sapiens, UniProt O60674); experiment: JAK2 biochemical potency; conditions: read-out: JAK2 HTRF IC50

Row | Compound | IC50 [1] | EC50 [2] | IC50 [3] | EC50 [4] | further results
1 | N#Cc1ccccc1S(=O)(=O)n1ccc2cnc(Nc3ccc(CN4CCCC(O)C4)cc3)nc21 (stereo not shown) | < 20 nM | – | – | – | –
2 | C[C@@H](O)CN1CCN(c2ccc(Nc3ncc4ccn(Cc5cccnc5N(C)S(C)(=O)=O)c4n3)cc2)CC1 [Example 666] | – | > 1 µM | – | – | –
3 | C[C@@H]1CN(c2ccc(Nc3ncc4c(n3)N(S(=O)(=O)c3cccc5ccccc35)CC4(C)C)cc2)CCN1 | > 1000 nM | > 1 µM | – | – | –
4 | O=C(C1CC1)N1CCN(c2ccc(Nc3ncc4ccn(S(=O)(=O)c5cccc6cccnc56)c4n3)cc2)CC1 | < 20 nM | < 0.02 µM | < 20 nM | > 1 µM | –
5 | CCN1CCN(c2ccc(Nc3ncc4ccn(Cc5cccnc5N(C)S(C)(=O)=O)c4n3)cc2)CC1 | – | – | < 20 nM | > 1 µM | –
6 | Cc1cc(Nc2ncc3cnn(S(=O)(=O)c4cccc5cccnc45)c3n2)ccc1N1CCOCC1 | – | – | < 20 nM | > 1 µM | –
7 | CC(=O)N1CC2CC1CN2c1ccc(Nc2ncc3ccn(S(=O)(=O)c4cccc5cccnc45)c3n2)cc1 (stereo not shown) | – | – | < 20 nM | – | –
8 | COc1cc(N2CCNCC2)ccc1Nc1ncc2ccn(Cc3ccccc3N(C)S(C)(=O)=O)c2n1 | – | – | < 20 nM | – | –
9 | Cc1ccc(N(C)S(C)(=O)=O)c(Cn2ccc3cnc(Nc4ccc(N5CCN[C@H](C)C5)cc4)nc32)c1 | < 20 nM | – | < 20 nM | – | –
10 | CN(c1ncccc1Cn1ccc2cnc(Nc3ccc(C4CNC(=O)CO4)cc3)nc21)S(C)(=O)=O (stereo not shown) | – | – | – | > 1 µM | –
11 | C[C@H]1CN(c2ccc(Nc3ncc4ccn(Cc5cc(F)ccc5N(C)S(C)(=O)=O)c4n3)cc2)CCN1 | – | – | < 20 nM | – | –
12 | CN(c1ncccc1Cn1ccc2cnc(Nc3ccc(C(=O)NCC(C)(C)O)c(F)c3)nc21)S(C)(=O)=O | – | > 1 µM | – | > 1 µM | –
13 | COCCN1CCN(c2ccc(Nc3cc4c(cn3)cnn4S(=O)(=O)c3cccc4cccnc34)c(OC)c2)CC1 | – | – | < 20 nM | – | –
14 | N#Cc1ccccc1S(=O)(=O)n1ccc2cnc(Nc3ccc4c(c3)CC(=O)N4)nc21 | < 20 nM | – | < 20 nM | > 1 µM | –
15 | C[C@@H]1CN(c2ccc(Nc3ncc4ccn(Cc5ccccc5N(CCO)S(C)(=O)=O)c4n3)cc2)CCN1 | – | > 1 µM | – | – | –
16 | CC(=O)Nc1ccc(Nc2ncc3ccn(Cc4ccccc4N(C)S(C)(=O)=O)c3n2)cc1 | – | – | < 20 nM | – | –
17 | CC(=O)Nc1cccc(Nc2ncc3ccn(C(=O)c4ccccc4OC(F)F)c3n2)c1 | – | – | – | – | IC50 [5]: < 20 nM
18 | Cn1cc(Nc2cc3c(ccn3S(=O)(=O)c3cccc4cccnc34)cn2)cn1 | < 20 nM | – | < 20 nM | – | –
19 | COc1cc(N2CCC(OC(C)=O)CC2)ccc1Nc1ncc2ccn(Cc3ccccc3N(C)S(C)(=O)=O)c2n1 | – | – | < 20 nM | – | –
20 | CN(C)C1CCN(c2ccc(Nc3ncc4ccn(-c5cccc(N(C)S(C)(=O)=O)n5)c4n3)cc2)CC1 | – | > 1 µM | – | – | –
21 | CS(=O)(=O)Nc1ccccc1Cn1ccc2cnc(Nc3ccc4c(c3)CC(=O)N4)nc21 | < 20 nM | – | < 20 nM | > 1 µM | –
22 | CN(c1ccccc1Cn1ccc2cnc(Nc3ccc(N(C)[C@H]4CC[C@H](O)CC4)cc3)nc21)S(C)(=O)=O | < 20 nM | – | – | – | –
23 | O=C1Cc2cc(Nc3ncc4ccn(S(=O)(=O)c5cccc6cccnc56)c4n3)ccc2N1 | < 20 nM | < 0.02 µM | < 20 nM | > 1 µM | IC50 [5]: < 20 nM
